Values quoted from earlier work, collected in patent US20160338955A1, “ANTIGEN-SPECIFIC IMMUNOTHERAPY USING TOLERIZING LIPOSOMES” (PLS-Design GmbH, priority 2015, published 2016).

Conditions: 45 mg CMS/kg/day in two divided doses, one to two weeks; cited from earlier work

choline magnesium trisalicylate [CMS]
steady state serum salicylate level, mean value: 213 ± 10 mg/L
